E-selectin induc: E-selectin induction on HUVECs; P16581; activation, % at 7.58 µM; 260,000 compounds, 0.37% hits; HUVEC E-selectin immunofluorescence imaging; normalized: neutral wells 0, TNF-alpha wells 100; AID 686992;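 active = mean E-selectin-positive cell signal at least 10% of the positive control, reached in at least 60% of replicates, without over 20% cell loss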
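Assay system: HUVEC primary endothelial cells. Input: 3,000 HUVEC seeded per well. Doses: one compound dose added by pin transfer. Read-out basis: % PE-positive cells. Benchmarks: TNF-alpha high, DMSO low. Detection: immunofluorescence imaging. Buffer or medium: EGM-2, gelatin.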
MLL AF4-AF9 inh: MLL-AF4/AF9 protein interaction inhibition | P42568 | AlphaScreen, biotin-AF4 peptide binding to FLAG-AF9 | inhibition, % at 10 µM | 350,000 compounds, 0.47% hits | AID 651704;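 active = every replicate reaching a set inhibition limit, whatever the replicate mean, cut at about 25% in these data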
RAD54 inh: RAD54 (human) branch migration inhibition; 360,000 compounds, 0.14% hits; RAD54 Holliday junction branch migration, FAM/BHQ fluorescence; Q92698; inhibition, % at 10.4 µM;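 active = mean normalized replicate activity at least 40 and at least half of replicates scoring 40 or more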;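 note: inhibitors cause a drop in the FAM fluorescence signal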
UUG fidelity: modulators of yeast start codon fidelity, primary screen, whole organism, S. cerevisiae, single point, plate reader; S. cerevisiae UUG-firefly luciferase reporter, luminescence/redox ratio; activity score, % at 18.7 µM; 0.13% of 350,000 active; AID 602363, 2012;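 active = replicate mean at a twofold rise or more, about +100% in these data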;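 also: firefly luciferase made from a UUG start codon reports start codon fidelity; reporter light over untreated wells divided by growth signal over untreated wells; some hits fall short of that in this replicate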
RAD52 anneal inh: inhibitors of human RAD52 DNA annealing; recombinant RAD52 DNA annealing, FRET fluorescence; AID 651710; 360,000 compounds, 0.46% hits; inhibition, % at 18.7 µM; P43351;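 active = every replicate showing at least 50% inhibition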
SIRT5 inh: blocks human SIRT5 desuccinylation of peptide | Purified SirT5, succinyl-peptide AMC, trypsin-coupled fluorescence | inhibition, % at 15 µM | 330,000 compounds, 1.1% hits; in the data active = inhibition above about 15%
Hits are given with their value; 0 = inactive; - = no result given; ! = not active in a repeat. Only some compounds are listed: those with a hit (about 1.8% of all), similar ones and a draw of the others.

SMILES | E-selectin induc | MLL AF4-AF9 inh | RAD54 inh | UUG fidelity | RAD52 anneal inh | SIRT5 inh
COc1cc(SC)ccc1C(=O)Nc1cccc(S(=O)(=O)NC2=NCCC2)c1 | 0 | 0 | 0 | 0 | 0 | 15
O=C(Nc1cccc(S(=O)(=O)NC2=NCCC2)c1)c1ccccc1F | 0 | 0 | 0 | 0 | 0 | 0
CCC(=O)Nc1ccc2c(c1)C(=O)N(C)C[C@@H](OC)[C@H](C)CN(C(=O)NC(C)C)[C@@H](C)CO2 | 0 | 0 | 0 | 0 | 0 | 0
COc1ccc(NC(=O)CN(C)CC(=O)Nc2ccc3c(c2)CCC3)cc1 | - | 0 | - | - | 0 | 112
COc1ccc(OCC(=O)Nc2ccc3c(c2)CCC3)cc1 | - | 0 | 0 | 0 | 0 | 0
COc1cccc(NC(=O)CN(C)CC(=O)NCc2ccco2)c1 | 0 | 0 | 0 | 0 | 0 | 17
CO[C@@H]1CN(C)C(=O)c2ccc(NS(=O)(=O)CC(F)(F)F)cc2OC[C@H](C)N(C(=O)NC(C)C)C[C@H]1C | 0 | - | - | - | - | -
COc1ccc2c3c(n(C)c2c1)[C@H](CO)N(C(C)=O)CC31CN(S(=O)(=O)c2ccccc2)C1 | 0 | 0 | - | - | 0 | 0
COC(=O)NNC(=O)C12CC3CC(CC(C3)C1)C2 | 0 | 0 | 0 | 0 | 0 | 0
NC(=S)NNC(=O)C12CC3CC(CC(C3)C1)C2 | 55 | 0 | 0 | 0 | 0 | 0
CC(C)c1ccc(NC(=O)C[C@H]2CC[C@H]3[C@@H](COc4ccc(NC(=O)Nc5ccc(F)c(F)c5)cc4C(=O)N3C)O2)cc1 | - | 0 | 0 | - | 0 | 0
O=C(C[C@@H]1CC[C@@H](NC(=O)c2ccc3c(c2)OCO3)[C@@H](CO)O1)NCc1ccc(F)cc1 | 0 | 0 | 0 | 0 | 0 | 0
CC(C)Cc1nc2c(nnn2Cc2ccccc2F)c(=O)[nH]1 | 0 | 38 | - | - | 0 | 0
CC(C)Cc1n[nH]c(=O)c2c1nnn2Cc1ccccc1F | - | 0 | 0 | 0 | 0 | 0
C[C@H]1CN([C@@H](C)CO)C(=O)c2ccccc2-c2ccccc2CO[C@H]1CN(C)Cc1cccc(O)c1 | 0 | 0 | 0 | - | 0 | -
COc1ccc(S(=O)(=O)N(C)C[C@@H]2Oc3ccc(NC(=O)NC4CCCCC4)cc3C(=O)N([C@H](C)CO)C[C@H]2C)cc1 | 0 | 0 | 0 | 0 | 0 | 0
CC(C)NC(=O)Nc1ccc2c(c1)C(=O)N([C@@H](C)CO)C[C@@H](C)[C@@H](CN(C)S(=O)(=O)c1ccc(Cl)cc1)O2 | 0 | 0 | 0 | 0 | 0 | 0
C[C@@H]1CN([C@H](C)CO)C(=O)c2cc(NC(=O)NC3CCCCC3)ccc2O[C@H]1CN(C)S(=O)(=O)c1ccc(Cl)cc1 | 141 | 0 | 0 | 0 | 0 | 0
C[C@H]1CN([C@@H](C)CO)C(=O)c2cc(NC(=O)NC3CCCCC3)ccc2O[C@H]1CN(C)S(=O)(=O)c1ccc(Cl)cc1 | 0 | 0 | 0 | 0 | 0 | 0
CC(C)NC(=O)Nc1ccc2c(c1)C(=O)N([C@H](C)CO)C[C@@H](C)[C@H](CN(C)S(=O)(=O)c1ccc(Cl)cc1)O2 | 0 | 0 | 56 | 0 | 0 | 0
COc1ccc(S(=O)(=O)N(C)C[C@H]2Oc3ccc(NC(=O)NC4CCCCC4)cc3C(=O)N([C@@H](C)CO)C[C@@H]2C)cc1 | 0 | 0 | 0 | 0 | 0 | 19
Clc1ccc2c(N/N=C/c3cccnc3)ccnc2c1 | - | 0 | 71 | 0 | 0 | -
C/C=C/c1ccc2c(c1)O[C@H](CN(C)C(=O)NC1CCCCC1)[C@H](C)CN([C@H](C)CO)S2(=O)=O | 0 | 0 | 0 | 0 | 0 | 0
C[C@H](CO)N1C[C@H](C)[C@H](CN(C)C(=O)NC2CCCCC2)Oc2cc(/C=C/c3ccccc3)ccc2S1(=O)=O | - | 0 | 0 | - | 0 | 25
C[C@H](CO)N1C[C@H](C)[C@@H](CN(C)C(=O)NC2CCCCC2)Oc2cc(/C=C/c3ccccc3)ccc2S1(=O)=O | - | 0 | 0 | - | 0 | 0
SMILES | E-selectin induc | MLL AF4-AF9 inh | RAD54 inh | UUG fidelity | RAD52 anneal inh | SIRT5 inh
C[C@@H]1CN([C@@H](C)CO)S(=O)(=O)c2ccc(/C=C/c3ccccc3)cc2O[C@H]1CN(C)C(=O)NC1CCCCC1 | - | 0 | 0 | - | 0 | 22
C/C=C/c1ccc2c(c1)O[C@@H](CN(C)C(=O)NC1CCCCC1)[C@@H](C)CN([C@H](C)CO)S2(=O)=O | 0 | 0 | 0 | 0 | 0 | 0
C[C@@H]1CN([C@@H](C)CO)S(=O)(=O)c2ccc(/C=C/c3ccccc3)cc2O[C@@H]1CN(C)C(=O)NC1CCCCC1 | - | 0 | 0 | - | 0 | 28
C[C@H]1CN([C@@H](C)CO)S(=O)(=O)c2ccc(/C=C/c3ccccc3)cc2O[C@H]1CN(C)C(=O)NC1CCCCC1 | 0 | 0 | 0 | 0 | 0 | 26!
O=C(N[C@H]1CC[C@H](CCNC(=O)c2ccccc2F)O[C@@H]1CO)c1cnccn1 | 0 | 0 | 0 | 0 | 0 | 0
C[C@H]1CN([C@@H](C)CO)S(=O)(=O)c2ccc(/C=C/c3ccccc3)cc2O[C@H]1CN(C)C(=O)NC1CCCC1 | 0 | 0 | 0 | 0 | 0 | 19
COc1ccccc1-c1ccc2c(c1)O[C@@H](CN(C)S(=O)(=O)c1ccccc1)[C@H](C)CN([C@@H](C)CO)S2(=O)=O | 0 | 0 | 0 | 0 | 0 | 20
CCCN(C)C[C@@H]1Oc2cc(-c3ccccc3OC)ccc2S(=O)(=O)N([C@H](C)CO)C[C@@H]1C | 0 | 0 | 0 | 0 | 0 | 32
COc1ccccc1-c1ccc2c(c1)O[C@@H](CN(C)S(=O)(=O)c1ccccc1)[C@@H](C)CN([C@H](C)CO)S2(=O)=O | 0 | 0 | 0 | 0 | 0 | 0
COc1ccccc1-c1ccc2c(c1)O[C@@H](CN(C)S(=O)(=O)c1ccccc1)[C@H](C)CN([C@H](C)CO)S2(=O)=O | 0 | 0 | 0 | 0 | 0 | 19
CCN1CCN(c2cc(C)c3cc(NC(=O)c4ccc(OC)c(OC)c4)ccc3n2)CC1 | 0 | 0 | 58 | 0 | 0 | 0
O=C(Nc1ccccc1C(=O)N1CCOCC1)c1cc2ccccc2o1 | - | 0 | 0 | 0 | 0 | 30
O=C(O)C1C2CCC(C2)C1C(=O)NCCc1ccc(F)cc1 (stereo unspecified) | 0 | 0 | 0 | 0 | 0 | 17
O=C(O)C1C2CCC(C2)C1C(=O)NCCc1cccc(Cl)c1 (stereo unspecified) | - | 0 | 0 | 0 | 0 | 0
CN(C)c1ccc(C=NNc2ccccn2)c(Cl)c1 | 0 | 0 | - | - | 0 | 17
C[C@H]1CN([C@@H](C)CO)C(=O)Cc2cc(NC(=O)CCCCCC(=O)Nc3ccccc3N)ccc2O[C@@H]1CN(C)S(=O)(=O)c1ccc(F)cc1 | 0 | 0 | 0 | 0 | 0 | -
O=C(N/N=C/c1ccccn1)c1cc(-c2ccc(Cl)s2)[nH]n1 | 0 | 0 | 0 | 0 | 0 | 0
O=C(N/N=C/c1ccccn1)c1cc(-c2ccc(Br)s2)[nH]n1 | 0 | 0 | 0 | 0 | 0 | 18
COc1cccc(OCc2ccc(Cn3nc(NC(=O)NCCc4ccc(OC)c(OC)c4)c4ccccc43)cc2)c1 | 0 | 0 | 0 | 0 | 0 | 35
CCNC(=O)C[C@@H]1CC[C@H]2[C@H](COc3ccc(NS(=O)(=O)c4ccccc4C)cc3C(=O)N2C)O1 | 0 | 0 | 0 | 0 | 0 | 0

Bioassay records: PubChem, Broad Institute
